Amino acid sequences for entries named in this document (tags omitted).
UniProt P35372, whole entry, looked up: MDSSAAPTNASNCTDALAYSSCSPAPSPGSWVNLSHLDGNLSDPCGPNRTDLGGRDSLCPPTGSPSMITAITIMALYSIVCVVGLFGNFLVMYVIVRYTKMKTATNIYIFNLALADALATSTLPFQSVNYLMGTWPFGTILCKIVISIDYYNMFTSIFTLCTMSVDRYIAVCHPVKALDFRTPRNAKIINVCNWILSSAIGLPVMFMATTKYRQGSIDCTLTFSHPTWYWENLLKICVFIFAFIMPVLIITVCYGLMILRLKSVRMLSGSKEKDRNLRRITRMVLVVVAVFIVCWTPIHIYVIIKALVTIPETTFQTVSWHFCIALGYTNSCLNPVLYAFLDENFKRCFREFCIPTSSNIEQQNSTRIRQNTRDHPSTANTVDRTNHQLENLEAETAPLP
UniProt P41143, whole entry, looked up: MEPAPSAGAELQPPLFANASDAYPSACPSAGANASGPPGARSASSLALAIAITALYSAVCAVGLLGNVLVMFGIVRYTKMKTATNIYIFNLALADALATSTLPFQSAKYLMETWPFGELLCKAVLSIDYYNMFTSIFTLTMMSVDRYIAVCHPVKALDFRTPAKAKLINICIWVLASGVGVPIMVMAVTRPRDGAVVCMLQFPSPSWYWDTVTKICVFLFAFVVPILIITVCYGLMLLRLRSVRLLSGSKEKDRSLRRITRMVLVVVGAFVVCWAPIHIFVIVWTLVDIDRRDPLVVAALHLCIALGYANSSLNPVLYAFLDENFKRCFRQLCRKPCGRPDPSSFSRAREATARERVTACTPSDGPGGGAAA

Several values for one entry are separate records, joined by “and”; a condition that tells them apart may be missing. Equal values may be shown once. This is a selection; strong and weak results do not stand in their true shares. Activity calls are given as the source filed them. Cut-off read from the data, not from the text of the source: active = activation above about 18%; inactive = the rest.
These compounds were tested against Mu-type opioid receptor (Homo sapiens) + Delta-type opioid receptor (Homo sapiens) (UniProt P35372+P41143) (assay: inducers of mu-delta opioid receptor heterodimers – cell-based, luminescence, primary screen (AID 504326;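 note: 0% = vehicle-treated cells and 100% = reference agonist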)). Settings: cells, OPRM1-OPRD1 heterodimerization, at 9.3 µM, hits give high values.
In the case of `N=c1n(CCN2CCCCC2)c2ccccc2n1CC(=O)c1cccc([N+](=O)[O-])c1`, the activation is reported as inactive: 5.7%.
In the case of `CCC(=O)Nc1nc2ccccc2n1CCN(CC)CC`, the activation is reported as inactive: 1.01%.
In the case of `COc1ccccc1NC(=O)N1CCn2c(nc3ccccc32)C1`, the activation is reported as inactive: 1.15%.
For `Cn1c(=O)c2c(ncn2CC(=O)N2CCN(c3cccc(Cl)c3)CC2)n(C)c1=O`, the activation was inactive: -0.37%.
`Cc1ccc2c(c1)C1CN(C)CCC1N2C(=O)CCCN1C(=O)c2cccc3cccc(c23)C1=O` (stereo unspecified) was tested, and the activation was inactive: -1.74%.
With `CC(C)NC(=O)Cn1c(SCC(=O)c2ccc(F)cc2)nc2ccccc21` the activation was inactive: -0.63%.
`Cc1cc(C)c(CN2CCN(C(=O)Cn3cnc4c(NCc5ccccc5)ncnc43)CC2)c(C)c1` was tested, and the activation was inactive: 5.41%.
With `Cc1ccsc1/C=N/NC(=O)Cn1cnc2ccccc21` the activation was inactive: -1.08%.
In the case of `ClCCSc1nnc(-c2cccnc2)o1`, the activation is reported as inactive: -2.55%.
In the case of `CCOC(=O)CC[C@H](NC(=O)Cn1cnc2c(NCc3ccccc3)ncnc21)C(=O)OCC`, the activation is reported as inactive: -2.84%.
With `Cc1nc2ccccc2n1CC(=O)NCCN1CCCC1` the activation was inactive: -2.38%.
For `CC1(C)c2ccccc2N2CCC(=O)NC21/C=C/c1ccco1` (stereo unspecified), the activation was inactive: -1.62%.
`COc1ccc(CCNC(=O)[C@H](CCSC)NC(=O)N2CCn3c2nc2ccccc23)cc1OC` was tested, and the activation was inactive: -2.27%.
With `CSc1nc(N)nc2c1ncn2CC(=O)N[C@H](C)c1cccc2ccccc12` the activation was inactive: -0.74%.
In the case of `Cc1ccc2nc3c(c(C)c2c1)CC(C(Cl)Cl)S3` (stereo unspecified), the activation is reported as inactive: -1.2%.
`CN(C)CCn1cnc2c1c(=O)n(C)c(=O)n2C` was tested, and the activation was inactive: -1.55%.
`Cn1c(=O)c2c(nc(N3CCOCC3)n2CCNC2=NCCC2)n(C)c1=O` was tested, and the activation was inactive: -3.51%.
For `COc1ccc(S(=O)(=O)N2CCCCC2)cc1NC(=O)Cn1cnc2c1c(=O)n(C)c(=O)n2C`, the activation was inactive: -2.11%.
`O=C(Cn1c(C(F)(F)F)nc2ccccc21)N/N=C/c1ccco1` was tested, and the activation was inactive: -1.88%.
`CCOC(=O)Cn1c(=O)c2c(nc3n2CCN3Cc2ccccc2)n(C)c1=O` was tested, and the activation was inactive: -1.31%.
With `Cc1ccc(OP(=O)(Nc2ccc([N+](=O)[O-])cn2)Oc2ccc(C)cc2)cc1` the activation was inactive: -2.33%.
`Fc1ccc2c(c1)nnn2C1CCN(Cc2ccccc2)CC1` was tested, and the activation was inactive: 0.34%.
In the case of `COC(=O)[C@H](CCSC)NC(=O)Cn1cnc2c(NCc3ccccc3)ncnc21`, the activation is reported as inactive: -1.98%.
With `CC(Cc1ccc(O)cc1)NCC(O)c1cc(O)cc(O)c1` (stereo unspecified) the activation was inactive: -2.01%.
`Brc1ccc(CNc2nc3ccccc3n2CCN2CCCCC2)cc1` was tested, and the activation was inactive: 3.1%.
In the case of `COc1ccc(/C=N/NC(=O)Cn2c(Cc3ccc(OC)c(OC)c3)nc3ccccc32)cc1`, the activation is reported as inactive: 0.12%.
For `CN1CCN(c2nc3c(c(=O)[nH]c(=O)n3C)n2CC(N)=O)CC1`, the activation was inactive: -3.26%.
For `CSc1nc2ccccc2n1CC(=O)Nc1c(C)cccc1C`, the activation was inactive: 0.37%.
In the case of `Cc1ccc(SCc2nc3ccccc3n2CC(=O)Nc2c(C)cccc2C)cc1`, the activation is reported as inactive: 1.49%.
For `Cc1n[nH]c(C)c1S(=O)(=O)N1CCC(C(=O)N2CCn3c2nc2ccccc23)CC1`, the activation was inactive: -6.03%.
With `O=[As](O)(c1ccc(O)cc1)c1ccccc1O` the activation was inactive: -2.01%.
For `COc1ccc(NC(=O)N2CCn3c2nc2ccccc23)cc1`, the activation was inactive: 0.22%.
With `C[As](=O)(O)c1cccc(C(=O)O)c1` the activation was inactive: -3.23%.
`O=[N+]([O-])c1ccc(-c2cc([N+](=O)[O-])c(O)c([N+](=O)[O-])c2)cc1` was tested, and the activation was inactive: -2.73%.
With `Cc1ccc(S(=O)(=O)Nc2ccc3c(c2)nc2n3CCN(Cc3ccccc3)C2)cc1` the activation was inactive: -0.08%.
`Cn1c(=O)c2c(ncn2CC(=O)N/N=C/C(Br)=C/c2ccccc2)n(C)c1=O` was tested, and the activation was inactive: -0.87%.
With `CCN(CC)CCn1c(NCc2ccc3c(c2)OCO3)nc2ccccc21` the activation was inactive: 0.04%.
`O=C(NCc1ccccc1)N1CCn2c(nc3ccccc32)C1` was tested, and the activation was inactive: -2.13%.
With `O=C1Nc2ccccc2C12Nc1ccccc1-c1nc3ccccc3n12` (stereo unspecified) the activation was inactive: -2.09%.
In the case of `CC(NC(=O)[C@H](C)NC(=O)N1CCn2c1nc1ccccc12)c1ccccc1` (stereo partly specified), the activation is reported as inactive: -2.93%.
For `Cc1ccccc1NC(=O)Cn1c(=O)n(C)c2ccccc21`, the activation was inactive: 0.73%.
With `Cc1ccccc1OCC(O)Cn1c(=N)n(CCN2CCOCC2)c2ccccc21` (stereo unspecified) the activation was inactive: -0.54% and inactive: -0.95%.
`CN1CCC(N(C)c2nc(-c3ccc([N+](=O)[O-])cc3)nc3ccccc23)CC1` was tested, and the activation was inactive: 5.72%.
For `O=C(Nc1ccc(F)cc1)N1CCn2c(nc3ccccc32)C1`, the activation was inactive: -0.49%.
With `C[C@H](NC(=O)N1CCn2c1nc1ccccc12)C(=O)NCc1ccco1` the activation was inactive: -0.65%.
In the case of `N=c1n(CCCOc2ccc(Br)cc2)c2ccccc2n1CC(N)=O`, the activation is reported as inactive: -1.74%.
With `Cc1ccc2c(c1)C1CN(C)CCC1N2S(=O)(=O)c1ccccc1F` (stereo unspecified) the activation was inactive: -1.88%.
For `CC(C)CN(C(=O)Cn1c(Cl)nc2c1c(=O)n(C)c(=O)n2C)C1CCS(=O)(=O)C1` (stereo unspecified), the activation was inactive: -2.57%.
For `COc1ccc(NC(=O)Cn2c(NCC(C)O)nc3ccccc32)cc1Cl` (stereo unspecified), the activation was inactive: -3.6%.
With `O=C(Cn1c2[n+](c3ccc(C(F)(F)F)cc31)CCCCC2)Nc1ccc(Br)cc1` the activation was inactive: -0.24%.
With `CC(O)c1nc2ccccc2n1CC(=O)Nc1ccc(F)cc1Cl` (stereo unspecified) the activation was inactive: -0.65%.
In the case of `Nc1nonc1-c1nc2ccccc2n1CC(=O)Nc1ccccc1`, the activation is reported as inactive: -2.21%.
For `CCC(=O)Nc1nnc(/C=C/c2ccc(OC)cc2)s1`, the activation was inactive: -0.96%.
For `CC(=O)c1ccc(NC(=O)C2CC(=O)Nc3nc4ccccc4n32)cc1` (stereo unspecified), the activation was inactive: -3.85%.
With `CCN(CC)CCNC(=O)Cn1c(-c2ccccn2)nc2ccccc21` the activation was inactive: 0.48%.
With `CCN(CC)CCn1c(=N)n(CCOc2ccccc2)c2ccccc21` the activation was inactive: -1.81%.
`CCC(=O)N(c1ccccc1)C1CCCCC1` was tested, and the activation was inactive: -3.62%.
With `CCN(N=Nc1nonc1N)c1nonc1N` the activation was inactive: -2.84%.
In the case of `CC(C)(C)NC(=O)Cn1c(SCC(=O)NC2CCCC2)nc2ccccc21`, the activation is reported as inactive: -0.29%.
`Cn1c(=O)c2c(nc(NCc3ccccc3)n2CC(=O)NCc2ccccc2)n(C)c1=O` was tested, and the activation was inactive: -0.9%.
For `O=C(Cn1cnc2ccccc21)Nc1cccc([N+](=O)[O-])c1`, the activation was inactive: -2.9%.
In the case of `Nc1cccc2ccc([As](=O)(O)O)cc12`, the activation is reported as inactive: 4.75%.
`O=C(Cn1c(SCC(=O)N2CCc3ccccc3C2)nc2ccccc21)NC1CCCC1` was tested, and the activation was inactive: -2.38%.
For `Cn1c(=O)n(CC(=O)NCc2cccnc2)c2ccccc21`, the activation was inactive: -2.93%.
For `CC1CCCCN1C(=O)CSc1nc2ccccc2n1CC(=O)N1CCc2ccccc21` (stereo unspecified), the activation was inactive: -1.45%.
With `O=C(CCCCCNC(=O)N1CCn2c1nc1ccccc12)N[C@@H](Cc1ccccc1)C(=O)O` the activation was inactive: -2.1%.
With `Nc1ncnc2c1ncn2C1OC(CO)C(O)C1N` (stereo unspecified) the activation was inactive: -1.8%.
For `CN1C(=O)Cn2c1nc1ccccc12`, the activation was inactive: -1.83%.
In the case of `CC(C)C[C@H](NC(=O)N1CCn2c1nc1ccccc12)C(=O)N1CCCCC1`, the activation is reported as inactive: -1.46%.
With `CC(C)CSc1nc2ccccc2n1CC(N)=O` the activation was inactive: -1.14%.
With `C[C@H](O)[C@@H]1C(=O)N2CCc3ccc(N4CCOCC4)cc3[C@@H]2C[C@@H]1N(C)C(=O)Nc1ccccc1` the activation was inactive: -3.06%.
`CN(CC(=O)Nc1cccc(F)c1)C(=O)Cn1cnc2c1c(=O)n(C)c(=O)n2C` was tested, and the activation was inactive: -1.46%.
For `CC(C)NC(=O)Cn1c(SCC(=O)N2CCCCCC2)nc2ccccc21`, the activation was inactive: -1.43%.
In the case of `Cc1ccccc1NC(=O)Cn1cnc2c1c(=O)n(C)c(=O)n2C`, the activation is reported as inactive: -0.66%.
In the case of `O=C(Cn1c(COc2ccccc2)nc2ccccc21)Nc1cc(Cl)ccc1Cl`, the activation is reported as inactive: 2.16%.
For `COc1ccc(CC(=O)N2CCC(Nc3nc4ccccc4n3Cc3ccc(F)cc3)CC2)cc1`, the activation was inactive: -1.59%.
`COc1ccc(CCNC(=O)Cn2c(-c3nonc3N)nc3ccccc32)cc1OC` was tested, and the activation was inactive: -1.4%.
For `O=C(NCCn1c(C(F)(F)F)nc2ccccc21)[C@H]1CCCN1c1nc(CN2CCCCC2)cs1`, the activation was inactive: 0.22%.
With `COc1ccc(N2C(=O)CC(n3c(CCCCO)nc4ccccc43)C2=O)cc1` (stereo unspecified) the activation was inactive: -0.69%.
For `Cn1c(=O)c2c(ncn2CC(N)=O)n(C)c1=O`, the activation was inactive: -0.88%.
For `O=C(Cn1c(-c2cncs2)nc2ccccc21)NCc1ccccc1`, the activation was inactive: -3.05%.
`CC1CN(Cc2nc3c(c(=O)[nH]c(=O)n3C)n2CCN2CCOCC2)CC(C)O1` (stereo unspecified) was tested, and the activation was inactive: -1.49%.
`O=C(Nc1ccc2c(c1)nc1n2CCN(Cc2ccccc2)C1)c1cccs1` was tested, and the activation was inactive: -1.04%.
In the case of `O=C(CCC(=O)Nc1ccccc1)N/N=C/C=C/c1ccccc1`, the activation is reported as inactive: 0.55%.
With `Cc1cccc(OCC(O)Cn2c(=N)n(CCN3CCOCC3)c3ccccc32)c1` (stereo unspecified) the activation was inactive: -2.21%.
For `O=C(CSc1nc2ccccc2n1CC(=O)N1CCCC1)NCc1ccc2c(c1)OCO2`, the activation was inactive: -0.1%.
In the case of `Cc1cc(SC(NC(=O)c2ccc(F)cc2)C(Cl)(Cl)Cl)ncn1` (stereo unspecified), the activation is reported as inactive: 0.38%.
In the case of `CCOP(=O)(Nc1ccccc1)OCC`, the activation is reported as inactive: -1.29%.
With `CCOc1ccc2nc(NC(=O)Cn3cnc4c3c(=O)n(C)c(=O)n4C)sc2c1` the activation was inactive: 0.38%.
For `O=C(Cn1c(/C=C/c2ccccc2)nc2ccccc21)Nc1ccc(F)cc1`, the activation was inactive: 2.02%.
For `Cc1csc2c(NC3CCN(Cc4ccccc4)CC3)ncnc12`, the activation was inactive: -0.7%.

— PubChem BioAssay AID504326 (The Scripps Research Institute Molecular Screening Center, 2011)
